# Only a part is listed here, and it is no random draw. Activity calls are given as the source filed them.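 Rule for the calls: active = membrane potential signal moves up or down beyond 5 SD from buffer-only wells, on both duplicate plates; inactive = the rest.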
# Assay: parental HEK293 membrane potential modulation, confirmation, counter-screen for TRPC6 modulator project, cell-based (AID 488924)
# Settings: parental HEK293, membrane potential dye fluorescence; at 10 µM
row,Structure (SMILES),membrane potential signal change
1,CN1CCN(CCOC(=O)C(O)(c2ccccc2)c2ccccc2)CC1,inactive
2,O=C(OC1CN2CCC1CC2)C1c2ccccc2C=Cc2ccccc21 (configuration not stated),active: 95.5%

# From PubChem BioAssay AID488924 (Johns Hopkins Ion Channel Center, 2010)
